Test [1] addresses T1, Neu 4 (Homo sapiens, UniProt Q8WWR8).
T1 sequence (Q8WWR8 1-484): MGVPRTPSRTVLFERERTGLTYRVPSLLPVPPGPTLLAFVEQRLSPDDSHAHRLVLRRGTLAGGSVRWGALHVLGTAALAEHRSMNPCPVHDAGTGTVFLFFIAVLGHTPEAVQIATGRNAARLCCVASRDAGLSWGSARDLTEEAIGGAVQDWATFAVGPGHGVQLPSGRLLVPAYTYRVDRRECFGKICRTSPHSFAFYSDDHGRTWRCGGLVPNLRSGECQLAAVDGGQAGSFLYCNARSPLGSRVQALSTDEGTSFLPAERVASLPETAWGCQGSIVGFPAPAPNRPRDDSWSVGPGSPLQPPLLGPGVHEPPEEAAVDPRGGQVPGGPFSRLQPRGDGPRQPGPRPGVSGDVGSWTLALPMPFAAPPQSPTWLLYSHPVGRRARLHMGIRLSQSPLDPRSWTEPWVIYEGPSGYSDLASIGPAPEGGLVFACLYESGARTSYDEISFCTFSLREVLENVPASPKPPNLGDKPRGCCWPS
Particulars: marked *: Values reported in the literature; cited from earlier work.

Test [2] concerns the target T2, wild-type endogenous neuraminidase 3 (Neu3) (Homo sapiens, UniProt Q9UQ49).
T2 construct: increases wild-type endogenous neuraminidase 3 (Neu3) levels in SHSY-5Y neuroblastoma cells; endogenous in cells; host or cells: SHSY-5Y neuroblastoma cells
T2 sequence (Q9UQ49 1-428): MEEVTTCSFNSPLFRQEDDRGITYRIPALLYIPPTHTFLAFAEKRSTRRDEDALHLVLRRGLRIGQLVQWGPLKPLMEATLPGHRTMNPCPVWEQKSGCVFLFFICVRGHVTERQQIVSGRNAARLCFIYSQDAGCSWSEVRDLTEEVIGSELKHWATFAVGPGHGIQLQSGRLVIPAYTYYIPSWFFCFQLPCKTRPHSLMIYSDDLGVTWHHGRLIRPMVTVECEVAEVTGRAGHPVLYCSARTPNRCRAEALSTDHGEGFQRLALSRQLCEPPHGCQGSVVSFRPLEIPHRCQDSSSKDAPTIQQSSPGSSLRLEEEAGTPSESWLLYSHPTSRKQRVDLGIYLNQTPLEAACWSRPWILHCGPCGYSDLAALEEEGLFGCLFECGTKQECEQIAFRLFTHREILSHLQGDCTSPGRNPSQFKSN
Briefly: Neu3 levels in SHSY-5Y neuroblastoma cells (immunoblot, densitometry). Format: cell-based. Conditions: SHSY-5Y cells, increasing doses, 72 hours.

As a reminder, the IC50 is the point on the concentration scale where inhibition reaches its midpoint. “5-(acetylamino)-4-[(aminoiminomethyl)-amino]-2,6-anhydro-3,4,5-trideoxy-D-glycero-D-galacto-non-2-enonic acid [Zanamivir]”: the IC50 in test [1] was 690 µM. The “wild-type endogenous neuraminidase 3 (Neu3) levels” value in test [2] was “increases”.

The values above are taken from patent publication US9044437B2, “Method for treating alzheimer's disease using pharmacological chaperones to increase the activity of gangliosidases” (Amicus Therapeutics, Inc., priority 2009, dated 2015).
